The list shows a part of the results, in another mix than the full data. The source made the active and inactive calls.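 How the source made its calls: active means inhibition above the mean plus 3 SD of all compounds in the same screening run (cut at about 4.5% in these data); inactive means the rest.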

Usually inhibition stands for the change of the read-out against control, counted positive when it falls.

This experiment has as its system metallo-beta-lactamase IMP-1 (Pseudomonas aeruginosa). The experiment can be described thus: IMP-1 metallo-beta-lactamase inhibitors, primary screen, biochemical, epi-absorbance readout, Pseudomonas aeruginosa enzyme (AID 1556).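 Further: 0% = IMP-1 with DMSO and 100% = DMSO wells lacking enzyme.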 The note with it: purified IMP-1, nitrocefin hydrolysis, epi-absorbance fluorescence; at 5.6 µM; active compounds read high.
For the compound `Cc1ccc(N/C(=N/P(=O)(N2CCOCC2)N2CCOCC2)N2CCOCC2)cc1`, the inhibition is inactive: -2.6%.
The figure for `NC(=O)c1cc([N+](=O)[O-])cc([N+](=O)[O-])c1N` is inactive: -0.3%.
Next, `CC(=O)Nc1ccc([As](=O)(O)O)c(O)c1`: inactive: -1.62%; `CC(=O)Nc1ccc(Oc2c([N+](=O)[O-])cc([N+](=O)[O-])cc2[N+](=O)[O-])cc1`: inactive: -2.85%.
`CC(=O)c1ccc(N2CC2c2ccncc2)cc1` (centres undefined): the inhibition was inactive: -2.82%.
The figure for `CC(C)(C)C(=O)NC(Sc1ccccc1)C(Cl)(Cl)Cl` (centres undefined) is inactive: -0.26%.
The figure for `O=P1(Nc2nc3ccc(Cl)cc3s2)COc2ccccc2O1` (centres undefined) is inactive: -2.43%; for `CCOc1ccc(C2=NCC(CBr)S2)cc1` (centres undefined) it is inactive: -3.34%; for `Cc1ccccc1OP(=O)(Nc1ccccn1)Oc1ccccc1C` it is inactive: -2.88%.
Turning to `CN(C)C(=O)Oc1noc2ccccc12`, the inhibition is inactive: -1.88%.
The figure for `O=c1c2cc([N+](=O)[O-])ccc2[nH]c2c([N+](=O)[O-])cc([N+](=O)[O-])cc12` is inactive: -2.13%; for `O=C(OC1CN2CCC1CC2)c1ccccc1` (centres undefined) it is inactive: 0.7%; for `CCC(=O)N1C2C3N(C(=O)CC)C1C1N(C(=O)CC)C(C(N1C(=O)CC)N3C(=O)CC)N2C(=O)CC` it is inactive: -2.51%.
The figure for `COC(=O)c1cc2c(s1)N=C(c1ccccc1)N(C)P2(=O)N1CCOCC1` (centres undefined) is inactive: -0.68%; for `Cc1ccc(OP(=O)(Nc2ccccn2)Oc2ccc(C)cc2)cc1` it is inactive: -1.83%.
With `CC(=O)NC(SC(=S)N(CC(C)C)CC(C)C)C(Cl)(Cl)Cl` (centres undefined), the inhibition was inactive: -2.42%.
Next, `c1ccc(-c2nn[nH]n2)c(-c2nn[nH]n2)c1`: inactive: 1.68%; `CCOC(=O)NC(Sc1ccccc1)C(Cl)(Cl)Cl` (centres undefined): inactive: -0.45%; `Cc1ccc(NP(=O)(Oc2cccc(C)c2)Oc2cccc(C)c2)nc1`: inactive: 1.61%.
Next, `O=C(NC1CCS(=O)(=O)C1)NP(=S)(Oc1ccccc1)Oc1ccccc1` (centres undefined): inactive: -2.73%; `CCNC(=S)/N=C(\N)N[N+](=O)[O-]`: active: 7.01%.
Take `O=C(OC1CN2CCC1CC2)c1cccc(Cl)c1` (centres undefined): the inhibition was inactive: -4.98%.
The figure for `Nc1ccc([As](=O)(O)c2ccc([N+](=O)[O-])cc2)cc1` is inactive: -0.43%; for `C(Cc1nn[nH]n1)Cc1nn[nH]n1` it is inactive: -2.94%; for `O=[As](O)(c1ccccc1)c1ccc(O)cc1` it is inactive: -0.7%.
Next, `O=[N+]([O-])c1ncn(CCn2cnc([N+](=O)[O-])n2)n1`: inactive: -5.1%; `CC(=O)NC(SC(=S)N(C)C)C(Cl)(Cl)Cl` (centres undefined): inactive: -1.38%; `O=[N+]([O-])c1ccc(O)c(/C=N/Nc2ccc([N+](=O)[O-])cc2[N+](=O)[O-])c1`: inactive: -2.17%.
Next, `O=P(Nc1nc2ccccc2s1)(c1ccccc1)c1ccccc1`: inactive: -2.91%; `CN(C)C1(CNC(=O)c2ccc(Cl)c(S(N)(=O)=O)c2)CCCCC1`: inactive: -2.37%.
In the case of `O=P(Nc1ccccn1)(c1ccc(Br)cc1)c1ccc(Br)cc1`, the inhibition was inactive: -1.14%.
Next, `c1nnnn1CCn1cnnn1`: inactive: -3.35%; `O=P(Nc1nccs1)(c1ccccc1)c1ccccc1`: inactive: -3.25%; `CC(C)C(=O)NC(Sc1ccccc1)C(Cl)(Cl)Cl` (centres undefined): inactive: -2.6%.

Values taken from PubChem BioAssay AID1556 (The Scripps Research Institute Molecular Screening Center, 2009).
